# Test results taken from article PMC8703450, “New Heterocyclic Combretastatin A-4 Analogs: Synthesis and Biological Activity of Styryl-2(3H)-benzothiazolones” (Pharmaceuticals, 2021).
# System: colchicine binding site of β-tubulin
# Assay: Colchicine-binding site assay (EBI competition) in EA.hy926 cells
# Format: cell-based, human
# Conditions: EA.hy926, 10 μM compound 2 h, then 100 µM EBI 2 h, Western blot
# Procedure: N,N′-ethylene-bis(iodoacetamide) (abcam, ab144980) was dissolved in DMSO to a final concentration of 50 mM. EA.hy926 cells were seeded at density of 1 × 10^5 cells/mL and incubated overnight. […] Cells were lysed with Laemmli buffer and subjected to Western blot analysis for β-tubulin [66, 67]. The detailed Western blot method is as shown above.
compound,measurement,value
COc1cc2c(c(OC)c1OC)-c1ccc(OC)c(=O)cc1[C@@H](NC(C)=O)CC2 [colchicine],tubulin EBI-adduct formation,inhibited
